{"source": "patent US20210077478A1", "about": "“METHOD OF COUNTERING RESPIRATORY DEPRESSION VIA ACTIVATION OF NEURONAL HETEROMERIC NICOTINIC ACETYLCHOLINE RECEPTORS” (THE GOVERNORS OF THE UNIVERSITY OF ALBERTA, priority 2017, published 2021)", "key": {"adult rats [1]": {"test_system": "adult rats", "test": "Thermal nociception (paw withdrawal latency, plantar test) in adult rats", "format": "in vivo, rat", "conditions": "A85380 0.06 mg/kg 2 min prior to fentanyl 20 μg/kg over 400s iv"}, "adult rats [2]": {"test_system": "adult rats", "test": "Formalin test (licking and lifting) in adult rats", "format": "in vivo, rat", "conditions": "A85380 0.06 mg/kg 2 min prior to fentanyl 20 μg/kg over 400s iv"}}}
{"smiles": "c1cncc(OC[C@@H]2CCN2)c1", "note": "[A85380, 3-(2(s)-azetidinylmethoxy) pyridine]", "values": [{"measurement": "fentanyl-induced analgesia, thermal test", "setting": "adult rats [1]", "value": "further increased fentanyl-induced analgesia"}, {"measurement": "fentanyl-induced analgesia, formalin test", "setting": "adult rats [2]", "value": "further increased fentanyl-induced analgesia"}]}
